Data on one substance can be found in patent publication US9089129B2, “Non-aerosol foaming alcohol hand sanitizer” (AMERICAN STERILIZER COMPANY, priority 2011, dated 2015).

The nature of the data set: Foam quality and stability screen in 70% w/w ethanol solution. In kind it is physicochemical. Further details: key: Poor: little to no foam generated; Moderate: some foam generated, and/or foam generated collapsed rapidly; Good: large amount of foam was generated and foam was stable (did not collapse rapidly). Particulars: approximately one gram of component in 15 grams of 70% w/w ethanol solution (aqueous), shaken by hand for 15 seconds. Here is the method:
A number of different components were screened to evaluate their ability to create a stable foam in a 70% w/w ethanol solution (aqueous). For this evaluation, approximately one gram of each component was added to 15 grams of the ethanol solution in a vial.

Turning to lsosteareth-3 Octanoate, the “Foam Profile” value is on record as “Poor”.
